Data published in patent publication US20230346884A1, “Molecular Targets for Modulation of Dissociative and Associative States” (The Board of Trustees of the Leland Stanford Junior …, priority 2020, published 2023).

Test system: layer 5 RSP cells
Assay: Ketamine-TRAP brain-wide activity mapping (TRAP2 mice)
Format: in vivo, mouse
Settings: 50 mg/kg ketamine injections
Experimental: Dissolved 4-OHT (20 mg/mL in ethanol) was mixed with corn oil at a concentration of 10 mg/mL, and ethanol evaporated by vacuum centrifugation (60 minutes). Mice were each placed alone in a novel cage for 30 minutes, to remain for the experiment. Two mice were injected with 50 mg/kg ketamine intraperitoneally, and two mice were injected with an equivalent volume of saline. After 1 hr, all mice were injected with 50 mg/kg tamoxifen, as well as an additional dose of 50 mg/kg ketamine/saline. After 1 hr, a final dose of ketamine/saline was administered. This protocol was designed to ensure that the ketamine-induced oscillation (and associated cFos expression) was occurring throughout the majority of the ˜4 hr post-tamoxifen-injection time window during which TRAP2 labels cells. After 10 days (to allow time for expression of tdTomato), mice were perfused with ice cold PBS and 4% PFA. Coronal sections (50 μm) were taken using a vibratome and imaged on an epifluorescence microscope.

Compound: CNC1(c2ccccc2Cl)CCCCC1=O (stereo not shown) [ketamine]
- Layer-specific recruitment by TRAP2 activity-mapping: layer 5 was specifically recruited
